Laboratory results published in US20190276812A1.

What was measured:
[1] = molecular target: cell surface cation-independent M6P receptor (CIMPR) on fibroblasts and myoblasts (UniProt P11717); assay: cell-based or functional assay
[2] = molecular target: cation-independent mannose 6-phosphate receptor (CIMPR), immobilised on a column or plate; assay: M6P receptor (CIMPR) plate binding assay, bound rhGAA read by GAA activity
[3] = molecular target: cation-independent mannose 6-phosphate receptor (CIMPR), immobilised on a column or plate; assay: CIMPR affinity chromatography of different production batches
[4] = molecular target: cation-independent mannose 6-phosphate receptor (CIMPR), immobilised on a column or plate; assay: CIMPR affinity chromatography, M6P gradient elution, read by GAA activity

Kuptake, internalization by Pompe fibroblasts and skeletal muscle myoblasts [1] | concentration that saturates cellular receptors (fibroblast uptake) [1] | Kd [2] | percent CIMPR receptor binding [3] | uptake efficiency constant (Kuptake), internalized GAA activity in normal and Pompe fibroblasts [1] | percent of rhGAA bound to CIMPR (eluted with M6P) [4] | percent of rhGAA that did not bind to the CIMPR [4] | Substance
7 to 14 nM | 20 nM | 2 to 4 nM | 70% | – | – | – | ATB-200 rhGAA (recombinant human acid alpha-glucosidase produced in CHO cell line GA-ATB-200) (from UniProt P10253 70-952) (enzyme)
– | 250 nM | – | – | 56 nM | 22% | 78% | Lumizyme (alglucosidase alfa, conventional rhGAA) (from UniProt P10253 57-952) (enzyme)
– | – | – | – | – | 27% | 73% | Myozyme (alglucosidase alfa, conventional rhGAA) (from UniProt P10253 57-952) (enzyme)
